According to patent US20120148530A1, “Method for the treatment or prevention of virus infection using polybiguanide-based compounds” (Novaflux Biosciences, Inc., priority 2003, published 2012):

System: P4R5 cells
Assay: P4R5 cell viability, MTT
Conditions: P4-R5 cells
From the text: To build on the information provided by the monomeric biguanide data a series of polybiguanide molecules were synthesized with varied linker length as described in Example 1. In these molecules the methylene spacer arms between the biguanide functionalities (X and Y in Forumla I) have been changed.
As described above the effect of PEHMB and related compounds on P4R5 cell viability after a two-hour exposure to the compound was compared to the effects of control compounds such as N-9. […] To further evaluate the effect of this class of compound on various types of cells (in particular PEHMB P4-R5 cells, ME-180 cells (ATCC HTB-33; cervical epidermoid carcinoma), VK2/E6E7 human vaginal cell line (Fichorova et al. 1997 Biol. Reprod. 57:847-855), and human primary vaginal karatinocytes (isolated from tissues obtained from vaginal reconstructive surgery)) the compounds were incubated with the different cells for various lengths of time before assessment of cell viability.

dextran sulfate
CC50 % 10 minute exposure (10 minute exposure): ~2.0%
CC50 % 2 hr exposure (2 hr exposure): >1.0%
